# From US10150764B2, “Substituted benzene compounds” (Epizyme, Inc., priority 2013, dated 2018)
# By UniProt entry, the sequences of proteins in these tests, tags left out.
# UniProt Q15910, whole entry: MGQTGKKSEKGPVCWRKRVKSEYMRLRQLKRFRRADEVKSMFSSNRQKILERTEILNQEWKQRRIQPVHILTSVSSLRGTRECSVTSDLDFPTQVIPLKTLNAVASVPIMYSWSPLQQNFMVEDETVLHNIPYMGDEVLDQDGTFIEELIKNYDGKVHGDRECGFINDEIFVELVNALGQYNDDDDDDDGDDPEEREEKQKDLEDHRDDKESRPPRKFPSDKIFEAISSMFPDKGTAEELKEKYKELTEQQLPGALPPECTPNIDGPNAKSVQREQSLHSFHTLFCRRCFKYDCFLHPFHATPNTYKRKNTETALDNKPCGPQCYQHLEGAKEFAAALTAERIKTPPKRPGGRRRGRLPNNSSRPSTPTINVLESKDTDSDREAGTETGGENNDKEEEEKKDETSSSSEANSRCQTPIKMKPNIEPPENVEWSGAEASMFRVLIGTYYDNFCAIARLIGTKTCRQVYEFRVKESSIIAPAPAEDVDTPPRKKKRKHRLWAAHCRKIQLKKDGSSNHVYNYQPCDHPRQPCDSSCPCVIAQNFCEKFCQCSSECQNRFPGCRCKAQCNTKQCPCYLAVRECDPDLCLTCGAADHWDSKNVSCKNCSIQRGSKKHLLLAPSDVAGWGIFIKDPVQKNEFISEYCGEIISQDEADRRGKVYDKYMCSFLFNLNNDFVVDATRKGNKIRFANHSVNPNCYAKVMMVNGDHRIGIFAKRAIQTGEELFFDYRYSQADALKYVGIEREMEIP
# Biological target: wild-type EZH2 (PRC2 enzyme) (Homo sapiens (Human), UniProt Q15910)
# Assay: PRC2 enzyme assay on peptide substrate, wild-type EZH2 (H3K27me0 peptide, 3H-SAM Flashplate)
# Assay type: biochemical
# Conditions: wild-type PRC2 4 nM, read-out: WT EZH2 IC50
structure (smiles),measurement,value
"CCN(c1cc(Cl)cc(C(=O)NCc2c(CCN(C)C)cc3n(c2=O)NCC3)c1C)[C@H]1CC[C@H](N(C)C)CC1 [Compound 1, 5-chloro-3-(((trans)-4-(dimethylamino)cyclohexyl)(ethyl)amino)-N-((5-(2-(dimethylamino)ethyl)-7-oxo-1,2,3,7-tetrahydropyrazolo[1,5-a]pyridin-6-yl)methyl)-2-methylbenzamide]",IC50,0.075 µM
